# Ab-14 light chain CDR variants: yeast mating affinities

Data: MIT Lincoln Laboratory AlphaSeq set, Engelhart et al. 2022, doi:10.1038/s41597-022-01779-4, as distributed in FLAb.

Antigen: PDVDLGDISGINAS, a 14-residue peptide of the SARS-CoV-2 spike HR2 region.

Ab-14 is the parent antibody, in scFv form: VH, then three GGGGS repeats, then VL. The heavy chain is unchanged in all variants.
VH: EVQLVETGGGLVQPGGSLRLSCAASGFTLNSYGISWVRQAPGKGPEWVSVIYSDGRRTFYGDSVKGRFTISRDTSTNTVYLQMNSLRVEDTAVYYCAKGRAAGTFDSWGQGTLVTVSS
VL: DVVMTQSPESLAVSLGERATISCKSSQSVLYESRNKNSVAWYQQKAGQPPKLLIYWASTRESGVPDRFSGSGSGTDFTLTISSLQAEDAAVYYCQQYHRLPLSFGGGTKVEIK

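Library AAYL50 holds single substitutions and randomly drawn double and triple substitutions in the CDRs. The assay is AlphaSeq: two haploid yeast populations carry antibody and antigen on their surface. After mating in shaken culture at 30 °C for 16 h, diploids were selected and their barcode pairs sequenced. The ratio of observed to expected reads was calibrated, replicate by replicate, on BCL2-family standards whose Kd was known from biolayer interferometry. The assay was run in three technical replicates.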

Each variant is given by its three light chain CDRs, as the data file delimits them; those of the parent are KSSQSVLYESRNKNSVA, WASTRES, QQYHRLPLS. Numbers give log10(Kd / nM), so 0 is 1 nM and 3 is 1 µM. Smaller is tighter. "n.d." marks a missing value. The strain was present, yet no cells mated with the target were sequenced in that replicate, which points to weak or no binding. Parent in this assay: reference entry 0.65, copy in this library 1.68.

| # | CDR-L1 | CDR-L2 | CDR-L3 | replicates, log10 nM | control signals |
|---|---|---|---|---|---|
| 1 | KSSQSVLYESRRKNSVA | WASFRIS | QQYHRLPLS | n.d. n.d. n.d. | 1 of 9 (4.09) |
| 2 | KSSQSVLYESRNKNSVA | WALTQES | QQYHRWPLS | n.d. n.d. n.d. | 1 of 9 (2.64) |
| 3 | KSSQSVLYTSRNSNSVA | WASTRES | QQYHRLPLY | n.d. n.d. n.d. | 0 of 9 |
| 4 | KSSQSVLYESRNKNSVA | WASTLES | QQYHRLPLS | 3.92 3.61 3.73 | 2 of 9 (4.46) |
| 5 | YSSQSVLYESRNKNSVA | WASTIES | QQYHRLMLS | 3.78 n.d. n.d. | 3 of 9 (3.45) |
| 6 | KSSQSVLYESRAKNSVA | WASTRES | QNWHRLPLS | 4.36 n.d. n.d. | 3 of 9 (4.46) |
| 7 | KSSQSNLYESRNKNSVA | WASTRES | DYYHRLPLS | 1.50 1.54 1.71 | 0 of 9 |
| 8 | KSSQSVLYESRNKNSVA | WASTRES | QQFHRLPLS | 2.06 1.40 n.d. | 0 of 9 |
| 9 | KSSQSVLYESRAKNSVA | WASTRES | QQGHRMPLS | n.d. 3.56 n.d. | 1 of 9 (3.79) |
| 10 | KSSQSVRYESRNKNSVW | WASTRES | QSYHRLPLS | n.d. 4.09 n.d. | 6 of 9 (4.55) |
| 11 | KSSQSVTYESRNKNSVA | WASTRES | QQYHRLPFS | 0.68 1.03 0.95 | 2 of 9 (4.80) |
| 12 | KSSQSVLQPSRNKNSVV | WASTRES | QQYHRLPLS | n.d. n.d. n.d. | 1 of 9 (4.17) |
| 13 | KSSQSVLYESRNKESVA | WASTRES | QQYHRLPLS | 1.78 1.73 1.92 | 7 of 9 (4.32) |
| 14 | KSSQSVLYESRNKNCVN | WASTRES | QQYLRLPLS | 1.92 1.65 2.57 | 3 of 9 (5.13) |
| 15 | KSSQSVLYRSRNKNSVA | WCSTRES | QQYHRLPLC | n.d. n.d. n.d. | 0 of 9 |
| 16 | KSFQSVLYECRNKNSVA | WASTREW | QQYHRLPLS | n.d. n.d. n.d. | 3 of 9 (3.25) |
| 17 | KSDQSVLYESDNKNSAA | WASTRES | QQYHRLPLS | n.d. n.d. 3.68 | 0 of 9 |
| 18 | KSSQSVLYESYNKNSVA | WASTRES | QQYHNLPNS | n.d. n.d. n.d. | 1 of 9 (2.67) |
| 19 | KSSQSVLNESRNKNSVA | WASSRES | QQAHRLPLS | 4.44 3.93 2.57 | 1 of 9 (2.88) |
| 20 | KSLQSVLYESRNKNSVA | WANTRES | QQYHRTPLS | n.d. n.d. n.d. | 1 of 9 (2.47) |
| 21 | KSNQSVLYESRNKNMVA | WASTREQ | QQYHRLPLS | n.d. 2.74 n.d. | 4 of 9 (4.25) |
| 22 | KSSQSVLYESRNGNSGA | WASTRES | QQYHRLVLS | 4.07 4.02 4.00 | 6 of 9 (4.50) |
| 23 | KSSQSVLYSSRNKNSVA | WSSTRES | QQFHRLPLS | 2.56 2.30 2.47 | 4 of 9 (4.31) |
| 24 | KSSQSVIYESRNKNAVA | WASTKES | QQYHRLPLS | 1.91 1.92 2.03 | 4 of 9 (4.16) |
| 25 | KSSQSVLYESRNKNSVG | WFITRES | QQYHRLPLS | n.d. n.d. n.d. | 2 of 9 (3.84) |
| 26 | KSSQSVLYESRNHNSVE | WASTRES | QQYGRLPLS | n.d. n.d. n.d. | 1 of 9 (4.31) |
| 27 | KSSQSVLYGSRNKISVA | WASTRES | QQAHRLPLS | n.d. n.d. n.d. | 1 of 9 (4.50) |
| 28 | CSSQSVLYESRNKNSVA | WASTRES | QQYARLPGS | n.d. n.d. n.d. | 1 of 9 (2.99) |
| 29 | KSSQSVLYESRIKNSVA | WASTNES | QIYHRLPLS | n.d. n.d. n.d. | 0 of 9 |
| 30 | KSSQSVEYESRNKNSVA | WASCRES | QQYYRLPLS | 0.61 0.66 0.28 | 0 of 9 |
| 31 | KSSQSVLSESRNKNSVA | WASSRES | EQYHRLPLS | 2.47 2.30 2.45 | 4 of 9 (4.40) |
| 32 | KSSQSVENESRNPNSVA | WASTRES | QQYHRLPLS | 1.43 1.43 1.58 | 8 of 9 (4.52) |
| 33 | KPSQSVLYESRNKNYVA | WASTRES | QQYHRLPLS | n.d. n.d. n.d. | 0 of 9 |
| 34 | NSSQSVLYESRHKRSVA | WASTRES | QQYHRLPLS | n.d. n.d. n.d. | 3 of 9 (5.20) |
| 35 | KSSQEVLYESENKFSVA | WASTRES | QQYHRLPLS | 1.00 0.82 0.74 | 0 of 9 |
| 36 | KSSQSVLAESFNKDSVA | WASTRES | QQYHRLPLS | 0.73 0.95 0.80 | 2 of 9 (3.46) |
| 37 | RSSQSVLYESRNKNSVA | LASTRES | QQYHRLPLH | 2.70 2.27 3.21 | 1 of 9 (4.03) |
| 38 | KSSQSVLYESRNKNSVA | WASTRWS | QQFHRLPLS | 1.66 1.74 1.71 | 5 of 9 (4.15) |
| 39 | KSSFFVLYESRNKNSVA | WASTDES | QQYHRLPLS | n.d. n.d. n.d. | 1 of 9 (3.01) |
| 40 | KSSQSVCYESRNKNSVA | WASTRYS | QQYERLPLS | 2.72 2.56 2.12 | 1 of 9 (2.97) |
| 41 | KSSQSVLYESRNKNSVA | WASMRDS | QQYHRLPLS | 0.93 1.16 1.07 | 1 of 9 (3.98) |
| 42 | KSSQSVLYESRRKNSVA | WRSTRES | QQYHRLPLS | n.d. 4.00 n.d. | 4 of 9 (4.68) |
| 43 | KSSQSVLYESYNKNSVA | WMSTRES | QQYHRLPLS | 1.37 1.26 1.55 | 0 of 9 |
| 44 | KSSDSVLYESRNKNKVA | WASTRES | QQYHRLPLP | n.d. n.d. n.d. | 1 of 9 (3.43) |
| 45 | KSSQSVLYESRNKNFVA | WASTIES | QQYHRLPLS | 4.46 3.25 n.d. | 2 of 9 (4.11) |

The first 7 entries again:

CDR-L1,CDR-L2,CDR-L3,"replicates, log10 nM",control signals
KSSQSVLYESRRKNSVA,WASFRIS,QQYHRLPLS,n.d. n.d. n.d.,1 of 9 (4.09)
KSSQSVLYESRNKNSVA,WALTQES,QQYHRWPLS,n.d. n.d. n.d.,1 of 9 (2.64)
KSSQSVLYTSRNSNSVA,WASTRES,QQYHRLPLY,n.d. n.d. n.d.,0 of 9
KSSQSVLYESRNKNSVA,WASTLES,QQYHRLPLS,3.92 3.61 3.73,2 of 9 (4.46)
YSSQSVLYESRNKNSVA,WASTIES,QQYHRLMLS,3.78 n.d. n.d.,3 of 9 (3.45)
KSSQSVLYESRAKNSVA,WASTRES,QNWHRLPLS,4.36 n.d. n.d.,3 of 9 (4.46)
KSSQSNLYESRNKNSVA,WASTRES,DYYHRLPLS,1.50 1.54 1.71,0 of 9

Nonspecific signal, from three strains lacking the peptide, appeared in 18% of pairings of library AAYL50, centred on 4.19 (5% of these signals below 2.99); values are not corrected for it. The control count says in how many pairings with the empty strains this scFv gave a signal, with their mean in brackets.